The list shows a part of the results, in another mix than the full data. Records with an inconclusive call do not appear. Active and inactive are the calls of the source. Calls come from the whole dose curve; as a rule, active = well fitted inhibition curve with a large enough effect; inconclusive = small, poorly fitted or top-dose-only effect, or effect the other way; inactive = flat fitted curve, though single readings scatter.
% is set by controls: 0 for no effect and ±100 for the full control effect.

This experiment in a line: VP16 counterscreen qHTS for inhibitors of ROR gamma transcriptional activity.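 Note: Gal4-VP16 expression switched on by copper sulfate through the metallothionein promoter; nearly all actives have a fitted effect of over 50% in size.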 To be noted: Drosophila S2 Gal4-VP16 UAS-luciferase, luminescence, 20 h; at 53.6 µM (top of the series).
Take `CN(CCCl)CCCl`: the activity, negative = inhibition was inactive: -19.9%.

For `CCC(=O)N(c1ccccc1)C1CCN(CCc2ccccc2)CC1`, the activity, negative = inhibition was inactive: 2.2%.

For `O=[N+]([O-])C(Cl)(Cl)Cl`, the activity, negative = inhibition is inactive: -10%.

Source of the values: PubChem BioAssay AID2546 (National Center for Advancing Translational Sciences (NCATS), 2010).
